Source: PubChem BioAssay (NCI)
Some of these compounds have results that are not shown, active ones among them.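 Assay format: 96-well plates, 48-hour exposure. At the TGI there is no net growth.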

What was measured:
Test in all cases: inhibition of tumour cell growth, NCI panel, 48 h
786-0 renal = test system: 786-0 renal
A549 NSCLC = test system: A549 NSCLC
ACHN renal = test system: ACHN renal
CAKI-1 renal = test system: CAKI-1 renal
CCRF-CEM leukemia = test system: CCRF-CEM leukemia
COLO 205 colon = test system: COLO 205 colon
DU-145 prostate = test system: DU-145 prostate
EKVX NSCLC = test system: EKVX NSCLC
HCC-2998 colon = test system: HCC-2998 colon
HCT-116 colon = test system: HCT-116 colon
HCT-15 colon = test system: HCT-15 colon
HL-60(TB) leukemia = test system: HL-60(TB) leukemia
HOP-62 NSCLC = test system: HOP-62 NSCLC
HT29 colon = test system: HT29 colon
IGROV1 ovarian = test system: IGROV1 ovarian
K-562 leukemia = test system: K-562 leukemia
KM12 colon = test system: KM12 colon
LOX IMVI melanoma = test system: LOX IMVI melanoma
M14 melanoma = test system: M14 melanoma
MALME-3M melanoma = test system: MALME-3M melanoma
MCF7 breast = test system: MCF7 breast
MDA-MB-231 breast = test system: MDA-MB-231 breast
MDA-N = test system: MDA-N
MOLT-4 leukemia = test system: MOLT-4 leukemia
NCI-H226 lung = test system: NCI-H226 lung
NCI-H23 lung = test system: NCI-H23 lung
NCI-H522 lung = test system: NCI-H522 lung
NCI/ADR-RES ovarian = test system: NCI/ADR-RES ovarian
OVCAR-3 ovarian = test system: OVCAR-3 ovarian
OVCAR-5 ovarian = test system: OVCAR-5 ovarian
OVCAR-8 ovarian = test system: OVCAR-8 ovarian
PC-3 prostate = test system: PC-3 prostate
RPMI-8226 leukemia = test system: RPMI-8226 leukemia
RXF 393 renal = test system: RXF 393 renal
SF-268 CNS = test system: SF-268 CNS
SF-295 CNS = test system: SF-295 CNS
SF-539 CNS = test system: SF-539 CNS
SK-MEL-28 melanoma = test system: SK-MEL-28 melanoma
SK-MEL-5 melanoma = test system: SK-MEL-5 melanoma
SK-OV-3 ovarian = test system: SK-OV-3 ovarian
SN12C renal = test system: SN12C renal
SNB-19 CNS = test system: SNB-19 CNS
SNB-75 CNS = test system: SNB-75 CNS
SR leukemia = test system: SR leukemia
SW-620 colon = test system: SW-620 colon
T-47D breast = test system: T-47D breast
TK-10 renal = test system: TK-10 renal
U251 CNS = test system: U251 CNS
UACC-257 melanoma = test system: UACC-257 melanoma
UACC-62 melanoma = test system: UACC-62 melanoma
UO-31 renal = test system: UO-31 renal

With CC(C)C(O)(C(=O)O/C=C1\CC2CCN1CC2)c1ccccc1 (stereo unspecified) the TGI (786-0 renal) was > 100 µM, the TGI (A549 NSCLC) was > 100 µM and the TGI (ACHN renal) was > 100 µM. The TGI (CAKI-1 renal) was > 100 µM, the TGI (CCRF-CEM leukemia) was > 100 µM and the TGI (COLO 205 colon) was > 100 µM. For the same compound, the TGI (DU-145 prostate) was > 100 µM, the TGI (EKVX NSCLC) was > 100 µM and the TGI (HCC-2998 colon) was > 100 µM. For the same compound, the TGI (HCT-116 colon) was > 100 µM, the TGI (HCT-15 colon) was > 100 µM and the TGI (HL-60(TB) leukemia) was > 100 µM. For the same compound, the TGI (HOP-62 NSCLC) was > 100 µM, the TGI (HT29 colon) was > 100 µM and the TGI (IGROV1 ovarian) was > 100 µM. For the same compound, the TGI (K-562 leukemia) was > 100 µM, the TGI (KM12 colon) was > 100 µM and the TGI (LOX IMVI melanoma) was > 100 µM. The TGI (M14 melanoma) was > 100 µM, the TGI (MALME-3M melanoma) was > 100 µM and the TGI (MCF7 breast) was > 100 µM. For the same compound, the TGI (MDA-MB-231 breast) was > 100 µM, the TGI (MDA-N) was > 100 µM and the TGI (MOLT-4 leukemia) was > 100 µM. For the same compound, the TGI (NCI-H226 lung) was > 100 µM, the TGI (NCI-H23 lung) was > 100 µM and the TGI (NCI-H522 lung) was > 100 µM. For the same compound, the TGI (NCI/ADR-RES ovarian) was 45.8 µM, the TGI (OVCAR-3 ovarian) was > 100 µM and the TGI (OVCAR-5 ovarian) was > 100 µM. The TGI (OVCAR-8 ovarian) was > 100 µM, the TGI (PC-3 prostate) was > 100 µM and the TGI (RPMI-8226 leukemia) was > 100 µM. For the same compound, the TGI (RXF 393 renal) was > 100 µM, the TGI (SF-268 CNS) was > 100 µM and the TGI (SF-295 CNS) was > 100 µM. For the same compound, the TGI (SF-539 CNS) was > 100 µM, the TGI (SK-MEL-28 melanoma) was > 100 µM and the TGI (SK-MEL-5 melanoma) was > 100 µM. The TGI (SK-OV-3 ovarian) was > 100 µM, the TGI (SN12C renal) was > 100 µM and the TGI (SNB-19 CNS) was > 100 µM. The TGI (SNB-75 CNS) was > 100 µM, the TGI (SR leukemia) was > 100 µM and the TGI (SW-620 colon) was > 100 µM. The TGI (T-47D breast) was > 100 µM, the TGI (TK-10 renal) was > 100 µM and the TGI (U251 CNS) was > 100 µM. For the same compound, the TGI (UACC-257 melanoma) was > 100 µM, the TGI (UACC-62 melanoma) was > 100 µM and the TGI (UO-31 renal) was > 100 µM.

With C=C(C)C#CC(O)(C(=O)OC1CCN(C)CC1)c1cccs1 (stereo unspecified) the TGI (786-0 renal) was > 100 µM, the TGI (A549 NSCLC) was > 100 µM and the TGI (ACHN renal) was > 100 µM. The TGI (CAKI-1 renal) was > 100 µM, the TGI (CCRF-CEM leukemia) was > 100 µM and the TGI (COLO 205 colon) was > 100 µM. For the same compound, the TGI (DU-145 prostate) was > 100 µM, the TGI (EKVX NSCLC) was > 100 µM and the TGI (HCC-2998 colon) was > 100 µM. The TGI (HCT-116 colon) was > 100 µM, the TGI (HCT-15 colon) was > 100 µM and the TGI (HL-60(TB) leukemia) was > 100 µM. The TGI (HOP-62 NSCLC) was > 100 µM, the TGI (HT29 colon) was > 100 µM and the TGI (IGROV1 ovarian) was > 100 µM. For the same compound, the TGI (K-562 leukemia) was > 100 µM, the TGI (KM12 colon) was > 100 µM and the TGI (LOX IMVI melanoma) was > 100 µM. For the same compound, the TGI (M14 melanoma) was > 100 µM, the TGI (MALME-3M melanoma) was > 100 µM and the TGI (MCF7 breast) was > 100 µM. For the same compound, the TGI (MDA-MB-231 breast) was > 100 µM, the TGI (MDA-N) was > 100 µM and the TGI (MOLT-4 leukemia) was > 100 µM. The TGI (NCI-H226 lung) was > 100 µM, the TGI (NCI-H23 lung) was > 100 µM and the TGI (NCI-H522 lung) was > 100 µM. For the same compound, the TGI (OVCAR-3 ovarian) was > 100 µM, the TGI (OVCAR-5 ovarian) was > 100 µM and the TGI (OVCAR-8 ovarian) was > 100 µM. For the same compound, the TGI (PC-3 prostate) was > 100 µM, the TGI (RPMI-8226 leukemia) was > 100 µM and the TGI (RXF 393 renal) was > 100 µM. The TGI (SF-268 CNS) was > 100 µM, the TGI (SF-295 CNS) was > 100 µM and the TGI (SF-539 CNS) was > 100 µM. For the same compound, the TGI (SK-MEL-28 melanoma) was > 100 µM, the TGI (SK-MEL-5 melanoma) was > 100 µM and the TGI (SK-OV-3 ovarian) was > 100 µM. The TGI (SN12C renal) was > 100 µM, the TGI (SNB-19 CNS) was > 100 µM and the TGI (SNB-75 CNS) was > 100 µM. For the same compound, the TGI (SR leukemia) was > 100 µM, the TGI (SW-620 colon) was > 100 µM and the TGI (T-47D breast) was > 100 µM. For the same compound, the TGI (TK-10 renal) was > 100 µM, the TGI (U251 CNS) was > 100 µM and the TGI (UACC-257 melanoma) was > 100 µM. For the same compound, the TGI (UACC-62 melanoma) was > 100 µM and the TGI (UO-31 renal) was > 100 µM.
